Experimental data taken from ChEMBL document CHEMBL1147694, “Synthesis and biological activity of conjugates between paclitaxel and the cell delivery vector penetratin” (Bioorg Med Chem Lett, 2006).

Tests used:
A549 = experiment: Antiproliferative activity against human A549 cell line by MTT assay after 72 hrs; format: functional, cell-based
Method in brief: (§1)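 Human tumour cells, MCF7 (breast) and A549 (lung), were exposed to test compounds for 72 h, and growth was read by MTT assay. IC50 is the concentration giving 50% growth inhibition, taken as the mean of three independent experiments.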

MCF7 = experiment: Antiproliferative activity against human MCF7 cell line by MTT assay after 72 hrs; format: functional, cell-based; method in brief: as §1

IC50 (A549): Not Active
IC50 (MCF7): Not Active
Compound: CC[C@H](C)[C@H](NC(=O)[C@H](CCCCN)NC(=O)[C@@H](NC(=O)[C@H](CCC(N)=O)NC(=O)[C@@H](N)CCCNC(=N)N)[C@@H](C)CC)C(=O)N[C@@H](Cc1c[nH]c2ccccc12)C(=O)N[C@@H](Cc1ccccc1)C(=O)N[C@@H](CCC(N)=O)C(=O)N[C@@H](CC(N)=O)C(=O)N[C@@H](CCCNC(=N)N)C(=O)N[C@@H](CCCNC(=N)N)C(=O)N[C@@H](CCSC)C(=O)N[C@@H](CCCCN)C(=O)N[C@@H](Cc1c[nH]c2ccccc12)C(=O)N[C@@H](CCCCN)C(=O)N[C@@H](CCCCN)C(=O)O
